{"source": "patent US20120046224A1", "about": "“TREATMENT OF DIABETES AND METABOLIC SYNDROME” (NORDIC BIOSCIENCE A/S, priority 2009, published 2012)", "origin": "cited, not measured here", "test_system": "rat hepatocytes", "settings": "cited from earlier work"}
{"substance": "calcitonin gene related peptide", "values": [{"measurement": "effect on rat hepatocytes and other cells", "value": "little effect"}]}
